Values quoted from earlier work as cited in patent US8623852B2, “Topical methods and compositions for the treatment of eye diseases and conditions” (Santen SAS, priority 2007, dated 2014).

Dexamethasone palmitate
penetration inside the eye (following topical administration): does not significantly penetrate
diffusion coefficient (in vivo): very low
